Patent US9023789B2, “Amylin analogs and pharmaceutical compositions thereof” (Novo Nordisk A/S, priority 2012, dated 2015)

Test system: amylin receptor / calcitonin receptor

In the case of `CC(C)C[C@H](NC(=O)[C@H](CCCCN)NC(=O)CNC(=O)[C@H](CC(C)C)NC(=O)[C@@H](NC(=O)[C@@H]1CSSC[C@H](N)C(=O)N[C@@H](CO)C(=O)N[C@@H](CC(N)=O)C(=O)N[C@@H](CC(C)C)C(=O)N[C@@H](CO)C(=O)N[C@@H]([C@@H](C)O)C(=O)N1)C(C)C)C(=O)N[C@@H](CO)C(=O)N[C@@H](CCC(N)=O)C(=O)N[C@@H](CCC(=O)O)C(=O)N[C@@H](CC(C)C)C(=O)N[C@@H](Cc1c[nH]cn1)C(=O)N[C@@H](CCCCN)C(=O)N[C@@H](CC(C)C)C(=O)N[C@@H](CCC(N)=O)C(=O)N[C@H](C(=O)N[C@@H](Cc1ccc(O)cc1)C(=O)N1CCC[C@H]1C(=O)N[C@@H](CCCNC(=N)N)C(=O)N[C@H](C(=O)N[C@@H](CC(N)=O)C(=O)N[C@H](C(=O)NCC(=O)N[C@@H](CO)C(=O)NCC(=O)N[C@H](C(=O)N1CCC[C@H]1C(N)=O)[C@@H](C)O)[C@@H](C)O)[C@@H](C)O)[C@@H](C)O` [salmon calcitonin], the “binding affinities to amylin receptors and calcitonin receptors” value is reported as “comparable binding affinities to amylin receptors and calcitonin receptors”.
